Earlier results in patent publication EP0390112B1, “Selective adenosine receptor agents” (MERRELL PHARMACEUTICALS INC., priority 1989, dated 1990).

Tested on: adenosine receptors
Conditions: in vivo; cited from earlier work

Q: Which “antagonism of the effects of adenosine analogs on heart rate versus blood pressure” value does the source give for `CCCn1c(=O)c2[nH]c(-c3ccc(OCC(=O)NCCN)cc3)nc2n(CCC)c1=O` [XAC, amino congener of 8-phenyl-1,3-dipropyl-xanthine] here?
A: Its value is “much more potent in antagonizing the effects of adenosine analogs on heart rate than on blood pressure”.
